# From PMC6009858, “Tricyclic coumarin sulphonate derivatives with alkaline phosphatase inhibitory effects: in vitro and docking studies” (Journal of Enzyme Inhibition and Medicinal Chemistry, 2018)
# By UniProt entry, the sequences of proteins in these tests, tags left out. Residues count along the entry.
# UniProt P09923, 20-528 limits assumed: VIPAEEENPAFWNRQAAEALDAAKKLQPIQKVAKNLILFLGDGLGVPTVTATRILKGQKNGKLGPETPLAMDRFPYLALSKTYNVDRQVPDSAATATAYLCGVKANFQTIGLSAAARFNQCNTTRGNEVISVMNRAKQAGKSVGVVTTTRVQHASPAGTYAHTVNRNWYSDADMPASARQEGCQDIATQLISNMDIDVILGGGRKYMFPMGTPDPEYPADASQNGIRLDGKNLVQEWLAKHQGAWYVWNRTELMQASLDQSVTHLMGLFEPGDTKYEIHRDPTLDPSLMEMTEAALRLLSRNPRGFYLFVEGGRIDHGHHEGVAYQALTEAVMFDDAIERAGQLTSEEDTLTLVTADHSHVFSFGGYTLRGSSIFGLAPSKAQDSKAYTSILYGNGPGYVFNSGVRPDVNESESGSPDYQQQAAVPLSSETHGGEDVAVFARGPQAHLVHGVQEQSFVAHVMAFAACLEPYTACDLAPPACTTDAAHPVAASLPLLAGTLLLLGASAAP
# UniProt P05186, 18-524 limits assumed: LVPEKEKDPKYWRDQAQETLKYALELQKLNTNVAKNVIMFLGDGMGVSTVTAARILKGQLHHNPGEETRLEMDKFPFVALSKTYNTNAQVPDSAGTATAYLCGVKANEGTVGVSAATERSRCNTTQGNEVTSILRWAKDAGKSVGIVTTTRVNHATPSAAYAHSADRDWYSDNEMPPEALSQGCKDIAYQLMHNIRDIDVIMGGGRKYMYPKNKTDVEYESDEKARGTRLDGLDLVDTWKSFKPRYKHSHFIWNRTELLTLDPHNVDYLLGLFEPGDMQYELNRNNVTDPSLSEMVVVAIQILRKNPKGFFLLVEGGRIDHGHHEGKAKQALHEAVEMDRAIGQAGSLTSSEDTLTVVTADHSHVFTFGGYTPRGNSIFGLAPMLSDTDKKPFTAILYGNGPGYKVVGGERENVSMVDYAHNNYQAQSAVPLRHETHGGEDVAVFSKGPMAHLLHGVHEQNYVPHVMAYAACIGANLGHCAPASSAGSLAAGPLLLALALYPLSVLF
# Legend:
# [1] = biological target: human intestinal alkaline phosphatase (h-IAP) (Homo sapiens, UniProt P09923); experiment: Alkaline phosphatase inhibition assay (h-IAP), CDP-star luminescence; details: read-out: IC50 (µM) ± SEM h-IAP, n = 3, DEA buffer
# [2] = biological target: human tissue nonspecific alkaline phosphatase (h-TNAP) (Homo sapiens, UniProt P05186); experiment: Alkaline phosphatase inhibition assay (h-TNAP), CDP-star luminescence; format: biochemical; details: read-out: IC50 (µM) ± SEM h-TNAP, n = 3, DEA buffer
IC50 [1] [µM],IC50 [2] [µM],Compound
1.28,1.85,CC(C)(C)c1ccc(S(=O)(=O)Oc2ccc3c4c(c(=O)oc3c2)CCCCCC4)cc1
3.92,6.33,CC(C)(C)c1ccc(S(=O)(=O)Oc2ccc3c4c(c(=O)oc3c2)CCCCC4)cc1
2.64,1.59,O=c1oc2cc(OS(=O)(=O)c3ccc(C(F)(F)F)cc3)ccc2c2c1CCCCC2
